Data published in patent publication US20250304717A1, “CAMPTOTHECIN DERIVATIVE AND LIGAND-DRUG CONJUGATE” (HAINAN SIMCERE ZAIMING PHARMACEUTICAL CO., LTD., priority 2022, published 2025).

Experiments:
SKBR3 tumor cell = test: Binding of anti-HER2 ADC and antibody with SKBR3 tumor cell by FACS; set-up: species or system human
Protocol: (§1) SKBR3 cells (from ATCC) were collected, counted, and plated in a 96-well plate (Corning, 3795) at 2×10^5 cells/well. The serially diluted sample to be detected was added and incubated at 4° C. for 1 h. After the mixture was washed twice with ice PBS, Alexa Fluor-647 goat anti-human Fc secondary antibody (JacksonImmuno, 109-605-098) was added, and the mixture was incubated at 4° C. for 1 h. After the mixture was washed twice with ice PBS, the cells were resuspended, and the mean fluorescence intensity (MFI) was analyzed using a flow cytometer (BD FACSCanto™ II). Data were analyzed by four-parameter curve fitting using Graphpad Prism software to give EC50 values.

[1] = molecular target: T1, LIV-1 on OVCAR3 tumor cells (human, UniProt Q13433 29-755); test: flow cytometry (FACS) on OVCAR3 cells, Alexa Fluor 647 anti-human Fc secondary antibody, MFI, four-parameter fit
T1 construct: whole, on cells; also called LIV-1 positive cells OVCAR3
T1 sequence (looked up): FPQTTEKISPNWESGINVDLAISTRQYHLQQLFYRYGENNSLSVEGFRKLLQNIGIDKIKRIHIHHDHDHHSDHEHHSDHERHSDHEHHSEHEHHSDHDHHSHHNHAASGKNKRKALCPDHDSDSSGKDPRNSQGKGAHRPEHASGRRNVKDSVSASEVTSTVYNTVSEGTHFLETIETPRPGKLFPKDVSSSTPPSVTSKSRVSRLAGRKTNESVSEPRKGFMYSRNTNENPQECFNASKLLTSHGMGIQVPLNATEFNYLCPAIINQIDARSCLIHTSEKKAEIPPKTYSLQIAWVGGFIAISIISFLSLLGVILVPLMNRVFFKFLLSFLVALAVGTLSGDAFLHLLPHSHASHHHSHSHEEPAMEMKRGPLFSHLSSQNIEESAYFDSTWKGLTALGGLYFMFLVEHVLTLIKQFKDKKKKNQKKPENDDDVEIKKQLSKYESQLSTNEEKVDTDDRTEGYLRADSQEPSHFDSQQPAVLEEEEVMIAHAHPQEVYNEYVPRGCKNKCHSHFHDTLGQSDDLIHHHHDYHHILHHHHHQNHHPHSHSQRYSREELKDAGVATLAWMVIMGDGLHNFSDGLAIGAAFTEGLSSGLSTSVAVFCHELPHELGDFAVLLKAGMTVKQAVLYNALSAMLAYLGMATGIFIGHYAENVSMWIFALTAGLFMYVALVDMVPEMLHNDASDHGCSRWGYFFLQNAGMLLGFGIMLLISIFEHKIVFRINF
Protocol: as §1, with “OVCAR3” for “SKBR3”, “cells” for “cells (from ATCC)”, “2×10⁵” for “2×10^5”, “Goat” for “goat”, “EC₅₀” for “EC50”

CDH6 on OVCAR3 cells = molecular target: T2, CDH6 on OVCAR3 cells (human, UniProt P55285 54-790); test: as above
T2 construct: whole, on cells; also called CDH6 positive cells OVCAR3; CDH6 high-expression cell strain
T2 sequence (looked up): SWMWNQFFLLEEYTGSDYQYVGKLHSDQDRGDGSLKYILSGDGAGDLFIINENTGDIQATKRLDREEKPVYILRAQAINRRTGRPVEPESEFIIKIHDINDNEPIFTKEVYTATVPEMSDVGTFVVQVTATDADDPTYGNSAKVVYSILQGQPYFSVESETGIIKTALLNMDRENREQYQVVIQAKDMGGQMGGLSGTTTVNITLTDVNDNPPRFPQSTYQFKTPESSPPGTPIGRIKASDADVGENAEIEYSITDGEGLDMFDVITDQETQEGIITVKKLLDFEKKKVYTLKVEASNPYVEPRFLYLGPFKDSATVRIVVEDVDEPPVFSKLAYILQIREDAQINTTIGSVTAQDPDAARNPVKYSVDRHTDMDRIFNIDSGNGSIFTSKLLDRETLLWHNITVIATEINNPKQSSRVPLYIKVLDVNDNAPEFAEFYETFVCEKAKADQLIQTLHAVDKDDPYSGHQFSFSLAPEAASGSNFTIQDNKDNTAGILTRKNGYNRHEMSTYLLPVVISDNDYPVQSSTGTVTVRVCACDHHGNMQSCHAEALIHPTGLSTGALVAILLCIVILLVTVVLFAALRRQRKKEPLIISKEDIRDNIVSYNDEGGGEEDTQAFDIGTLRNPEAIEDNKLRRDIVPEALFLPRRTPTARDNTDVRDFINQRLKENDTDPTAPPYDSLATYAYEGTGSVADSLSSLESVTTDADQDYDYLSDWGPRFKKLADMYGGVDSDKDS
Protocol: as §1, with “OVCAR3” for “SKBR3”, “cells” for “cells (from ATCC)”, “2×10⁵” for “2×10^5”, “Goat” for “goat”, “EC₅₀” for “EC50”

Molecule: Trastuzumab: anti-human HER2 monoclonal antibody; VH SEQ ID NO: 1, VL SEQ ID NO: 2 [reference compound]
- EC50 (SKBR3 tumor cell): 3.38 nM

B1: ADC-L1-19-7 (antibody, V domains shown)
VH: QVQLVQSGAEVKKPGASVKVSCKASGLTIEDYYMHWVRQAPGQGLEWMGWIDPENGDTEYGPKFQGRVTMTRDTSINTAYMELSRLRSDDTAVYYCAVHNAHYGTWFAYWGQGTLVTVSS
VL: DVVMTQSPLSLPVTLGQPASISCRSSQSLLHSSGNTYLEWYQQRPGQSPRPLIYKISTRFSGVPDRFSGSGSGTDFTLKISRVEAEDVGVYYCFQGSHVPYTFGGGTKVEIKR
modifications: drug-linker L1-19 on cysteine thiols after TCEP reduction; positions not given; DAR 6.5 for the whole conjugate
- EC50 [1]: 830 pM

B2: ADC-L1-19-P1-7 (antibody, V domains shown)
VH: QVQLVQSGAEVKKPGASVKVSCKASGLTIEDYYMHWVRQAPGQGLEWMGWIDPENGDTEYGPKFQGRVTMTRDTSINTAYMELSRLRSDDTAVYYCAVHNAHYGTWFAYWGQGTLVTVSS
VL: DVVMTQSPLSLPVTLGQPASISCRSSQSLLHSSGNTYLEWYQQRPGQSPRPLIYKISTRFSGVPDRFSGSGSGTDFTLKISRVEAEDVGVYYCFQGSHVPYTFGGGTKVEIKR
modifications: drug-linker L1-19-P1 on cysteine thiols after TCEP reduction; positions not given; DAR 8.3 for the whole conjugate
- EC50 [1]: 670 pM

B3: ADC-L1-0-7 (antibody, V domains shown)
VH: QVQLVQSGAEVKKPGASVKVSCKASGLTIEDYYMHWVRQAPGQGLEWMGWIDPENGDTEYGPKFQGRVTMTRDTSINTAYMELSRLRSDDTAVYYCAVHNAHYGTWFAYWGQGTLVTVSS
VL: DVVMTQSPLSLPVTLGQPASISCRSSQSLLHSSGNTYLEWYQQRPGQSPRPLIYKISTRFSGVPDRFSGSGSGTDFTLKISRVEAEDVGVYYCFQGSHVPYTFGGGTKVEIKR
modifications: drug-linker L1-0 on cysteine thiols after TCEP reduction; positions not given; DAR 6.7 for the whole conjugate
- EC50 [1]: 1450 pM

B4: LIV1-Ab-1 (antibody, V domains shown)
VH: QVQLVQSGAEVKKPGASVKVSCKASGLTIEDYYMHWVRQAPGQGLEWMGWIDPENGDTEYGPKFQGRVTMTRDTSINTAYMELSRLRSDDTAVYYCAVHNAHYGTWFAYWGQGTLVTVSS
VL: DVVMTQSPLSLPVTLGQPASISCRSSQSLLHSSGNTYLEWYQQRPGQSPRPLIYKISTRFSGVPDRFSGSGSGTDFTLKISRVEAEDVGVYYCFQGSHVPYTFGGGTKVEIKR
- EC50 [1]: 530 pM

B5: ADC-L1-19-P1-5 (antibody, human IgG1, kappa, V domains shown)
VH: EVQLVQSGAEVKKPGASVKVSCKASGYTFTDNYINWVRQAPGQRLEWMGWIYPGTGNSYYNEKFKGRVTITVDTSASTAYMELSSLRSEDTAVYLCASSYGDSFDYWGQGTTVTVSS
VL: DIVMTQSPDSLAVSLGERATINCRASQDIRNYLNWYQQKPGQTPKLLISYTSRLHSGVPDRFSGSGSGTDFTLTISSLQAEDVAVYYCQQYSQLPWTFGGGTKVEIKR
modifications: drug-linker L1-19-P1 on cysteine thiols after TCEP reduction; positions not given; DAR 8.2 for the whole conjugate
notes: Antibody-drug conjugate
- EC50 (CDH6 on OVCAR3 cells): 530 pM
